Reference: PubChem BioAssay AID894 (National Center for Advancing Translational Sciences (NCATS), 2007)
Only a part is listed here, and it is no random draw. Results filed as inconclusive are left out. Active and inactive are the calls of the source. Calls follow the shape of the dose curve; as a rule, active = well fitted inhibition curve with a large enough effect (not every such curve was filed as active); inconclusive = small, poorly fitted or top-dose-only effect, or another doubt; inactive = no such curve, though single readings can be large or run the other way.

Sequences of proteins named here, by UniProt entry; tags and fusion partners are left off.
UniProt P15428, whole entry: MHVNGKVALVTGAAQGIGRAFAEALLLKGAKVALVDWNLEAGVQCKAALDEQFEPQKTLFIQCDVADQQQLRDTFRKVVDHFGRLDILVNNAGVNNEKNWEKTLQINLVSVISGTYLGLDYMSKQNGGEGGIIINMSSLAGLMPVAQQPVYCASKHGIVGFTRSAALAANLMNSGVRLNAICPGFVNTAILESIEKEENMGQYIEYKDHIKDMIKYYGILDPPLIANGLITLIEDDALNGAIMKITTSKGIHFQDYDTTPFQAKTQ

Target: 15-hydroxyprostaglandin dehydrogenase [NAD(+)] (Homo sapiens) (UniProt P15428)
Experiment: qHTS Assay for Inhibitors of HPGD (15-Hydroxyprostaglandin Dehydrogenase); also: test concentration not given here
Details: purified HPGD, NADH fluorescence kinetic, PGE2 substrate; hits give low values
% is scaled to controls: 0 for no effect and ±100 for the full control effect.

Structure (SMILES) | activity change, negative = inhibition
[N-]=[N+]=NCC(O)CN=[N+]=[N-] (configuration not stated) | inactive: -11.9%
[N-]=[N+]=NCC(N)=O | inactive: -13.4%
